Reference: patent US4584305A, “Aiding the regression of neoplastic disease with 2,3,5,6-tetrahydro-6-phenylimidazo[2,1-b]thiazole” (Janssen Pharmaceutica N.V., priority 1981, dated 1986)

What was measured:
[1] = system: primary 3 LL tumour (Lewis Lung 3LL); conditions: for Primary tumour: negative intake: autopsy day 21; for Primary tumour: geometric mean weight (g) in positive mice: untreated 3.70 g
[2] = system: pulmonary metastases of 3 LL tumour (Lewis Lung 3LL); conditions: for Lung metastases: negative mice: autopsy day 21; for Lung metastases: geometric No. in positive mice: untreated 20.2
[3] = group 2, 0.5 mg kg^-1 levamisole s.c., day 1, 12 mice
[4] = group 3, 0.5 mg kg^-1 levamisole, days 7, 9, 11, 13, 15, 17, 10 mice
[5] = single injection of 0.5 mg kg^-1, 24 hr after tumor inoculation
[6] = treatment started after subcutaneous tumor had developed (day 7, every 2 days to day 17, 0.5 mg kg^-1)

Question: `c1ccc(C2CN3CCSC3=N2)cc1` (stereo not drawn) [levamisole, 2,3,5,6-tetrahydro-6-phenyl-imidazo[2,1-b]thiazole] was tested. Which “Primary tumour: negative intake” value [1, 3] did it give?
Answer: 3

Question: And the “Primary tumour: geometric mean weight (g) in positive mice” value ([1]; group 2, 0.5 mg kg^-1 levamisole s.c., day 1, 12 mice, confidence interval (0.95) 1.43-3.11)?
Answer: 2.27 g

Question: And the “Primary tumour: negative intake” value [1, 4]?
Answer: 4

Question: And the “Primary tumour: geometric mean weight (g) in positive mice” value ([1]; group 3, 0.5 mg kg^-1 levamisole, days 7, 9, 11, 13, 15, 17, 10 mice, confidence interval (0.95) 0.93-1.87)?
Answer: 1.40 g

Question: And the “inhibition of primary tumor growth in the 9 other mice” value [1, 5]?
Answer: significantly (P=0.01) inhibited

Question: And the mice completely cured [1, 5]?
Answer: 3 out of 12

Question: And the mice cured [1, 6]?
Answer: 4 out of 10

Question: And the “primary tumor in the remaining mice” value [1, 6]?
Answer: significantly (P=0.01) reduced

Question: What about the “Lung metastases: negative mice” value [2, 3] of the same compound?
Answer: 3

Question: What about the “Lung metastases: geometric No. in positive mice” value ([2]; group 2, 0.5 mg kg^-1 levamisole s.c., day 1, 12 mice, confidence interval (0.95) 0.7-5.7) of the same compound?
Answer: 3.2

Question: And the “Lung metastases: negative mice” value [2, 4]?
Answer: 5

Question: And the “Lung metastases: geometric No. in positive mice” value ([2]; group 3, 0.5 mg kg^-1 levamisole, days 7, 9, 11, 13, 15, 17, 10 mice, confidence interval (0.95) 1.5-4.5)?
Answer: 3.0

Question: What about the “inhibition of the number of pulmonary metastases in the 9 other mice” value [2, 5] of the same compound?
Answer: significantly (P=0.01) inhibited

Question: What about the “additional animals that did not demonstrate any lung metastases” value [2, 6] of the same compound?
Answer: one additional animal

Question: What about the “pulmonary metastases in the remaining mice” value [2, 6] of the same compound?
Answer: significantly (P=0.01) reduced

Like-named read-outs stand apart in the source and are kept apart here.
